Experimental data reported in patent publication US12251427B2, “Reduced oxygen carriers and their use for the treatment of carboxyhemoglobinemia” (priority 2016, dated 2025).

System: HbCO
Assay: Severe CO poisoning mouse model: HbCO level by spectrometry
Assay type: in vivo, mice
Conditions: Example 9
Description: To establish a model for cardiovascular and mortality end points, tracheally intubated, ventilated, anesthetized mice were exposed to 30,000 ppm (3%) CO gas, with 21% oxygen and 1.5% isoflurane for 4.5 minutes. Mice were surgically instrumented with placement of jugular venous (for infusion of drug) and carotid arterial (for blood pressure and heart rate monitoring) catheters. In this model, there was 88.2% (15/17) mortality in a group infused with 300 μL of PBS post exposure, while all mice that received an infusion of 11 mM myoglobin survived (0% mortality; n=5). Survival of mice infused with myoglobin was due to the reversal in hemodynamic collapse and bradycardia induced by CO (FIG. 5).
Through the jugular venous catheter, the HbCO level was sampled using spectrometry. Immediately after 4.5 minutes of CO exposure, the HbCO level was on average 84 to 88%. […] Mouse half-life for CO is much faster than for humans. […] Survival in mice infused with reduced myoglobin resulted from a restoration of heart rate (top) and mean arterial blood pressure (bottom).
Tracheally intubated, ventilated, anesthetized mice were exposed to 30,000 ppm (3%) CO gas, with 21% oxygen and 1.5% isoflurane for 4.5 minutes. Mice were surgically instrumented with placement of jugular venous (for infusion of drug) and carotid arterial (for blood pressure and heart rate monitoring) catheters. […]

With “albumin: albumin infused as control beside PBS in the severe CO poisoning model [reference compound]” the HbCO level (five minutes after infusion) was 80% and the HbCO level (ten minutes after treatment) was 75%.
